Here are results for 1 substance from US20230309833A1, “METHODS AND MATERIALS FOR USING [18F]-F-ARAG IN CARDIAC IMAGING” (CELLSIGHT TECHNOLOGIES INC., priority 2020, published 2023).

The subject of test [1] is rat myocardium. As to the kind of experiment: Comparison of 18FDG and [18F]F-AraG uptake in rat myocardium. As to conditions: in vivo. The text has this:
The rats were imaged with tracers on consecutive days.

Test [2] deals with heart wall. Briefly: [18F]F-AraG PET in cancer patients, myocardial uptake and safety. As to conditions: human, in vivo. The text has this:
FIG. 16 provides maximum intensity projection (MIP) [18F]F—AraG images of 18FDG and [18F]F—AraG myocardial uptake in a head and neck patient. The myocardial uptake in the diagnostic 18FDG obtained after fasting was low.
FIGS. 20A-20C show transverse [18F]F AraG PET images in a healthy volunteer in FIG. 20A and in a head and neck cancer patient in FIG. 20B. […] The increased signal before immunotherapy may indicate cardiotoxicity of prior anticancer treatments.
The safety and radiation dosimetry of [^18F]F—AraG was studied in six, healthy subjects (three male and three female) during the first-in-human study at UCSF. […] The signal persisted during the imaging window, indicating trapping of the tracer (FIG. 18). The tracer uptake appeared homogenous with no focal or regional increases. […] Radiomics, a computational method used to analyze and extract abundant quantitative features present in the images, such as texture, heterogeneity, and shape, has been mostly employed in oncologic imaging for improvement of cancer screening and early detection (48,49). […] Texture analysis of images can allow better characterization and quantification of the signal differences observed between healthy volunteers and some cancer patients (FIG. 20). […]

For the substance “^18F-fluorodeoxyglucose [18FDG, reference compound]”, the “Reproducibility of myocardial uptake” value in test [1] was “variation”. For the same substance, the Myocardial uptake result in test [2] was “low”.
